Reference: patent US11655216B2 (priority 2016, dated 2023)

Protein sequences, listed by entry. Tags and fused reporters are not part of them. Residues count along the entry.
UniProt Q13133, 209-447 limits assumed: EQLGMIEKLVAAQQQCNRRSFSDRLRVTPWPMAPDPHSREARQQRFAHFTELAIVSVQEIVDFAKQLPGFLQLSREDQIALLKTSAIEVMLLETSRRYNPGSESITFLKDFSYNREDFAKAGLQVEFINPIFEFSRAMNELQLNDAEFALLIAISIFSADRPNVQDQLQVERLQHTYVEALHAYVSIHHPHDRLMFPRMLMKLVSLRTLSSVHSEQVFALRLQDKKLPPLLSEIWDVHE

Biological target: T1, glutathione-S-transferase (GST) tagged LXRalpha LBD (ligand binding domain) (Homo sapiens, UniProt Q13133)
T1 construct: purchased Invitrogen pv4655
Assay: biochemical
Assay type: biochemical
Conditions: for EC50: LXR alpha IP; for LXR alpha actiivty at max dose: efficacy (% Emax) in relation to reference dual agonist T0901317
Method: While running the LanthaScreen™ TR-FRET Liver X Receptor Coactivator Assay, LXR alpha-LBD or LXR beta-LBD was added to ligand test compounds followed by addition of a mixture of a fluorescein-labelled coactivator peptide and terbium-conjugated anti-GST antibody. After an incubation period at room temperature, TR-FRET (time-resolved fluorescence resonance energy transfer) was measured using a filter-based instrument capable of TR-FRET, e.g. PerkinElmer Envision.

[1] = potency (Inflection Point), compound-induced co-activator recruitment, TR-FRET

SMILES | EC50 [1] | LXR alpha actiivty at max dose | Emax (read-out: LXR alpha actiivty at max dose, efficacy (% Emax) in relation to reference dual agonist T0901317) | LXR alpha IP [1]
CN(C)C(=O)c1ccc(OCCCCC2CCN(C(=O)C(O)(c3ccccc3)C(F)(F)F)CC2)nc1Cl (single isomer, unassigned) [Example 3-17, (S or R)-2-chloro-N,N-dimethyl-6-(4-(1-(3,3,3-trifluoro-2-hydroxy-2-phenylpropanoyl)piperidin-4-yl)butoxy)nicotinamide] | 334 nM | 41% |  | 
CCc1nc(OCCCCC2CCN(C(=O)C(O)(c3ccccc3)C(F)(F)F)CC2)ccc1C(=O)N(C)C (stereo not drawn) [Example 5-2, 2-ethyl-N,N-dimethyl-6-(4-(1-(3,3,3-trifluoro-2-hydroxy-2-phenylpropanoyl)piperidin-4-yl)butoxyl)nicotinamide] | 2510 nM |  | 32% | 
CN(C)C(=O)c1ccc(OCCCCC2CCN(C(=O)C(O)(c3ccccc3)C(F)(F)F)CC2)nc1Cl (single isomer, unassigned) [Example 3-16, (R or S)-2-chloro-N,N-dimethyl-6-(4-(1-(3,3,3-trifluoro-2-hydroxy-2-phenylpropanoyl)piperidin-4-yl)butoxy)nicotinamide] |  | 5% |  | No IP
